Like-named read-outs stand apart in the source and are kept apart here.
Tests used:
[1] = not given; remark: listed apart in the source
[2] = Brown Bullhead (Ameiurus nebulosus), in vivo
in vivo = conditions: goldfish (Carassius auratus), plasma concentration
[3] = human; ref Schulz et al.[56]; cited from earlier work
[4] = Cootes carp 13, Sep 28, 2011, female, wet weight
[5] = Cootes carp 36, Oct 3, 2011, female, wet weight
[6] = carp (Cyprinus carpio), in vivo
[7] = female, carp (Cyprinus carpio), in vivo
[8] = male, carp (Cyprinus carpio), in vivo
[9] = male, goldfish (Carassius auratus), in vivo

Q: With `Cn1c(=O)c2c(ncn2C)n(C)c1=O` [Caffeine] as the compound, how does the “plasma concentration, CPM-C 01” value (Cootes carp 01, 2011, male, wet weight) read?
A: 1.58 ng/g

Q: And the “plasma concentration, CPM-C 2” value (Cootes carp 2, Sep 27, 2011, male, wet weight)?
A: 5.05 ng/g

Q: And the “plasma concentration, CPM-C 10” value (Cootes carp 10, Sep 28, 2011, female, wet weight)?
A: 2.27 ng/g

Q: And the “plasma concentration, CPM-C 13” value [4]?
A: 2.34 ng/g

Q: What about the “plasma concentration, CPM-C 20” value (Cootes carp 20, 2011, male, wet weight) of the same compound?
A: 1.62 ng/g

Q: What about the “plasma concentration, CPM-C 36” value [5] of the same compound?
A: 2.15 ng/g

Q: What about the “Carp plasma concentration, this study (range)” value (Table S7) of the same compound?
A: 1.58 to 5.05 ng/g

Q: What about the “Goldfish plasma concentration, this study (range)” value ([1]; Table S7) of the same compound?
A: 1.47 to 1.57 ng/g

Q: And the “plasma concentration, CPM wild-01” value ([1]; wild goldfish sample 01, 2012, wet weight)?
A: 1.47 ng/g

Q: Which “Carp plasma concentration, this study (range)” value [6] does the source give for `CN1[C@@H]2CC[C@H]1C[C@@H](OC(c1ccccc1)c1ccccc1)C2` [Benztropine] here?
A: 0.05 to 0.41 ng/g

Q: What about the “Cootes carp plasma, range of concentrations” value [6] of the same compound?
A: 0.05 to 0.41 ng/g

Q: What about the “plasma concentration, carp, this study (mean)” value [6] of the same compound?
A: 0.27 ng/g wet weight or ng/mL for plasma

Q: And the “plasma concentration, CPM-C 10” value [7]?
A: 0.373 ng/g

Q: And the “plasma concentration, CPM-C 13” value [7]?
A: 0.407 ng/g

Q: And the “plasma concentration, CPM-C 36” value [7]?
A: 0.371 ng/g

Q: What about the “plasma concentration, JH-C 73” value [7] of the same compound?
A: 0.052 ng/g

Q: And the “plasma concentration, JH-C 75” value [7]?
A: 0.375 ng/g

Q: What about the “plasma concentration, JH-C 82” value [7] of the same compound?
A: 0.050 ng/g

Q: What about the “plasma concentration, CPM-C 01” value [8] of the same compound?
A: 0.053 ng/g

Q: And the “plasma concentration, CPM-C 2” value [8]?
A: 0.358 ng/g

Q: And the “plasma concentration, CPM-C 20” value [8]?
A: 0.054 ng/g

Q: What about the “plasma concentration, JH-C 54” value [8] of the same compound?
A: 0.053 ng/g

Q: What about the “plasma concentration, JH-C 74” value [8] of the same compound?
A: 0.053 ng/g

Q: What about the “plasma concentration, JH-C 78” value [8] of the same compound?
A: 0.052 ng/g

Q: What about the “plasma concentration, goldfish, this study (mean)” value ([1]; in vivo) of the same compound?
A: < mdl

Q: What about the “plasma concentration, JH-BB” value [2] of the same compound?
A: 0.436 ng/g

Q: With `CNCCC(Oc1ccc(C(F)(F)F)cc1)c1ccccc1` (centres unmarked) [Fluoxetine] as the compound, how does the concentration at 21 days (in vivo; CPM1 caged) read?
A: 0.302 ng/g

Q: What about the concentration at 21 days (in vivo; CPM2 caged) of the same compound?
A: 0.146 ng/g

Q: What about the concentration at 21 days (in vivo; CPM3 caged) of the same compound?
A: 0.154 ng/g

Q: What about the concentration at 21 days (in vivo; JH caged) of the same compound?
A: < 0.3 ng/g

Q: And the “Goldfish plasma concentration, this study (range)” value [1, 9]?
A: 0.15 to 0.4 ng/g

Q: What about the “plasma concentration, CPM wild-01” value [1, 9] of the same compound?
A: 0.147 ng/g

Q: And the “plasma concentration, CPM wild-02” value [1, 9]?
A: 0.153 ng/g

Q: What about the “plasma concentration, CPM wild-03” value [1, 9] of the same compound?
A: 0.4 ng/g

Q: For `CN(C)CCCC1(c2ccc(F)cc2)OCc2cc(C#N)ccc21` (centres unmarked) [Citalopram], which “toxic dose (toxic blood-plasma/serum concentration)” value [3] is on record?
A: 220 ng/mL

Q: What does the source list for `CC(C)Cc1ccc(C(C)C(=O)O)cc1` (centres unmarked) [Ibuprofen]?
A: plasma concentration, CPM-C 13 [4]: < 4.67 ng/g; plasma concentration, CPM-C 36 [5]: 4.67 ng/g; Carp plasma concentration, this study (range) (Table S7): 4.67 -4.67 ng/g
